Chains of the proteins cited; added tags and fusions are not shown.
UniProt P41144, whole entry: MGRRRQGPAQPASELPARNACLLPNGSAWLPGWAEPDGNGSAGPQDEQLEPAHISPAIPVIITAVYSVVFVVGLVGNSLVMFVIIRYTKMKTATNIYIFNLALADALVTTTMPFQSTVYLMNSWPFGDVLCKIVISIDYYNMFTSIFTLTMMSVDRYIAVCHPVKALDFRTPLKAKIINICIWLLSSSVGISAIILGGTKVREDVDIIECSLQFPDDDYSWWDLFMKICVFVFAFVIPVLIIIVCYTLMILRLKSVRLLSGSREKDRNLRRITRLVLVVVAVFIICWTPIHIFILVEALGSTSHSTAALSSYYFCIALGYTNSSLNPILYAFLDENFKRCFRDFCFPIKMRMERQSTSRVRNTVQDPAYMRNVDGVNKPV
UniProt P32300, whole entry: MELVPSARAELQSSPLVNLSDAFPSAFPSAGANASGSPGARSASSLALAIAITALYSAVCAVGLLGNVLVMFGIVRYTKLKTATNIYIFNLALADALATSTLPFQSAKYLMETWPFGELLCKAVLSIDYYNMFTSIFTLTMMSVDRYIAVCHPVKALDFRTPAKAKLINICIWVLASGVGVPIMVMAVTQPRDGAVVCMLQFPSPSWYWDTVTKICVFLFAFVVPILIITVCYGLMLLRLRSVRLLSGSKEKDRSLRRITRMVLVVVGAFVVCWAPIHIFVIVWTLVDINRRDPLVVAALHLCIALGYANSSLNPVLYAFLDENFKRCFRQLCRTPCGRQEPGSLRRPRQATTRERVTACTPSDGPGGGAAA
UniProt P42866, whole entry: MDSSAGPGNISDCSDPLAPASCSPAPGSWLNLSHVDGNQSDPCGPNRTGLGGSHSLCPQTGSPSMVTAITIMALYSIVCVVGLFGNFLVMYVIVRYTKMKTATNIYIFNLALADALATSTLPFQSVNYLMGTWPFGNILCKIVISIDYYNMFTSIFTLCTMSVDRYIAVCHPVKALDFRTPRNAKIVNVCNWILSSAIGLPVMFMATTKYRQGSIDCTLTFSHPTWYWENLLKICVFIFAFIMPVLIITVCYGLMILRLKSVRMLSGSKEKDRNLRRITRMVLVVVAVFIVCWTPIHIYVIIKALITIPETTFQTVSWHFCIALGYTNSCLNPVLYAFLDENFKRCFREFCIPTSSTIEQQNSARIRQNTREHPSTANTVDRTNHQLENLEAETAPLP
UniProt P33534, whole entry: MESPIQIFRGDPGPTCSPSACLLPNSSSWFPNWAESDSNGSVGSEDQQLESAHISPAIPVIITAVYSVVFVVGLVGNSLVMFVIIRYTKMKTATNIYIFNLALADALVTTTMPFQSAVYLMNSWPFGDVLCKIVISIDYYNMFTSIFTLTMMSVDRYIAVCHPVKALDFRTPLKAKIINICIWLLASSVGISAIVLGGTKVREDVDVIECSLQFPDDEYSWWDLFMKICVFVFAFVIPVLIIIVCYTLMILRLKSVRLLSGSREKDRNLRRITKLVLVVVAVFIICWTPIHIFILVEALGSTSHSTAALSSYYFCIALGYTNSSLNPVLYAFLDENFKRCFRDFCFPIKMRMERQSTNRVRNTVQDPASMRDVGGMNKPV

In ChEMBL document CHEMBL1127305, “kappa Opioid receptor selective affinity labels: electrophilic benzeneacetamides as kappa-selective opioid antagonists” (J Med Chem, 1994):

Columns and labels:
[1] = target: Kappa-type opioid receptor (Cavia porcellus) (UniProt P41144); test: Bmax for kappa opioid receptor in guinea pig brain membranes [3H]U-69593 as radioligand; details: Membrane
[2] = target: Delta-type opioid receptor (Mus musculus) (UniProt P32300); test: Agonist selectivity for delta opioid receptor in the naltrindole-treated mice Subcutaneous dose of 44.44 umol/kg of naltrindole was administered
[3] = target: Mu-type opioid receptor (Mus musculus) (UniProt P42866); test: Agonist selectivity for mu opioid receptor in the beta-funaltrexamine-treated mice Subcutaneous dose of 20.36 umol/kg of beta-FNA was administered
[4] = target: Kappa-type opioid receptor (Mus musculus) (UniProt P33534); test: Agonist selectivity for kappa opioid receptor in the naltrindole-treated mice. Subcutaneous dose of 12.25 umol/kg of norBNI was administered

| SMILES | Bmax [1] [fM/mg] | ED50 ratio [2] | ED50 ratio [3] | ED50 ratio [4] |
| --- | --- | --- | --- | --- |
| CN(C(=O)Cc1ccc(Cl)c(Cl)c1)[C@H](CN1CCCC1)c1cccc(N)c1 | 23.4 |  |  |  |
| CN(C(=O)Cc1ccc(Cl)c(Cl)c1)[C@H](CN1CCCC1)c1ccccc1 [ICI-199,441] |  | 1.19 | 1.72 | 2.31 |
